In ChEMBL document CHEMBL1128490, “(+/-)-(Z)-2-(aminomethyl)-1-phenylcyclopropanecarboxamide derivatives as a new prototype of NMDA receptor antagonists” (J Med Chem, 1995) one finds IC50 data, which are given here for one molecule.

The IC50 is the concentration that gives 50% inhibition. A high value points to a need for much substance.

The assay has as its target Glutamate NMDA receptor. Put plainly: Inhibition of [3H]MK-801 binding to NMDA receptor of rat cerebral cortical synaptic membrane. The gist of the method: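 Rat cerebral cortical synaptic membranes incubated with [3H]MK-801 (4 nM) in presence of glutamate (10 μM) and glycine (10 μM); test compound displacement of radioligand binding measured following a previously reported method.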

For `CN(C)CCCN1c2ccccc2CCc2ccccc21` [IMIPRAMINE], the IC50 came out at 14 µM.
